Sequences of proteins named here, by UniProt entry; tags and fusion partners are left off.
UniProt P50750, whole entry: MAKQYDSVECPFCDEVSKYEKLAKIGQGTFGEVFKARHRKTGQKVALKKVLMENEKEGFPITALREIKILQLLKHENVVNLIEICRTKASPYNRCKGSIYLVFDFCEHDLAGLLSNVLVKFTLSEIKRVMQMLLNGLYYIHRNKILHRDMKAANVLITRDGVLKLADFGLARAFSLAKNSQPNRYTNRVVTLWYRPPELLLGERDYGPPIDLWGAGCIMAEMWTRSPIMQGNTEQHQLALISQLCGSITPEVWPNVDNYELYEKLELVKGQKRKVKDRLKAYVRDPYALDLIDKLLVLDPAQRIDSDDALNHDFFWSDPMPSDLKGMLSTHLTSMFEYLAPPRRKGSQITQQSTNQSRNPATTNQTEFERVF
UniProt Q13535, whole entry: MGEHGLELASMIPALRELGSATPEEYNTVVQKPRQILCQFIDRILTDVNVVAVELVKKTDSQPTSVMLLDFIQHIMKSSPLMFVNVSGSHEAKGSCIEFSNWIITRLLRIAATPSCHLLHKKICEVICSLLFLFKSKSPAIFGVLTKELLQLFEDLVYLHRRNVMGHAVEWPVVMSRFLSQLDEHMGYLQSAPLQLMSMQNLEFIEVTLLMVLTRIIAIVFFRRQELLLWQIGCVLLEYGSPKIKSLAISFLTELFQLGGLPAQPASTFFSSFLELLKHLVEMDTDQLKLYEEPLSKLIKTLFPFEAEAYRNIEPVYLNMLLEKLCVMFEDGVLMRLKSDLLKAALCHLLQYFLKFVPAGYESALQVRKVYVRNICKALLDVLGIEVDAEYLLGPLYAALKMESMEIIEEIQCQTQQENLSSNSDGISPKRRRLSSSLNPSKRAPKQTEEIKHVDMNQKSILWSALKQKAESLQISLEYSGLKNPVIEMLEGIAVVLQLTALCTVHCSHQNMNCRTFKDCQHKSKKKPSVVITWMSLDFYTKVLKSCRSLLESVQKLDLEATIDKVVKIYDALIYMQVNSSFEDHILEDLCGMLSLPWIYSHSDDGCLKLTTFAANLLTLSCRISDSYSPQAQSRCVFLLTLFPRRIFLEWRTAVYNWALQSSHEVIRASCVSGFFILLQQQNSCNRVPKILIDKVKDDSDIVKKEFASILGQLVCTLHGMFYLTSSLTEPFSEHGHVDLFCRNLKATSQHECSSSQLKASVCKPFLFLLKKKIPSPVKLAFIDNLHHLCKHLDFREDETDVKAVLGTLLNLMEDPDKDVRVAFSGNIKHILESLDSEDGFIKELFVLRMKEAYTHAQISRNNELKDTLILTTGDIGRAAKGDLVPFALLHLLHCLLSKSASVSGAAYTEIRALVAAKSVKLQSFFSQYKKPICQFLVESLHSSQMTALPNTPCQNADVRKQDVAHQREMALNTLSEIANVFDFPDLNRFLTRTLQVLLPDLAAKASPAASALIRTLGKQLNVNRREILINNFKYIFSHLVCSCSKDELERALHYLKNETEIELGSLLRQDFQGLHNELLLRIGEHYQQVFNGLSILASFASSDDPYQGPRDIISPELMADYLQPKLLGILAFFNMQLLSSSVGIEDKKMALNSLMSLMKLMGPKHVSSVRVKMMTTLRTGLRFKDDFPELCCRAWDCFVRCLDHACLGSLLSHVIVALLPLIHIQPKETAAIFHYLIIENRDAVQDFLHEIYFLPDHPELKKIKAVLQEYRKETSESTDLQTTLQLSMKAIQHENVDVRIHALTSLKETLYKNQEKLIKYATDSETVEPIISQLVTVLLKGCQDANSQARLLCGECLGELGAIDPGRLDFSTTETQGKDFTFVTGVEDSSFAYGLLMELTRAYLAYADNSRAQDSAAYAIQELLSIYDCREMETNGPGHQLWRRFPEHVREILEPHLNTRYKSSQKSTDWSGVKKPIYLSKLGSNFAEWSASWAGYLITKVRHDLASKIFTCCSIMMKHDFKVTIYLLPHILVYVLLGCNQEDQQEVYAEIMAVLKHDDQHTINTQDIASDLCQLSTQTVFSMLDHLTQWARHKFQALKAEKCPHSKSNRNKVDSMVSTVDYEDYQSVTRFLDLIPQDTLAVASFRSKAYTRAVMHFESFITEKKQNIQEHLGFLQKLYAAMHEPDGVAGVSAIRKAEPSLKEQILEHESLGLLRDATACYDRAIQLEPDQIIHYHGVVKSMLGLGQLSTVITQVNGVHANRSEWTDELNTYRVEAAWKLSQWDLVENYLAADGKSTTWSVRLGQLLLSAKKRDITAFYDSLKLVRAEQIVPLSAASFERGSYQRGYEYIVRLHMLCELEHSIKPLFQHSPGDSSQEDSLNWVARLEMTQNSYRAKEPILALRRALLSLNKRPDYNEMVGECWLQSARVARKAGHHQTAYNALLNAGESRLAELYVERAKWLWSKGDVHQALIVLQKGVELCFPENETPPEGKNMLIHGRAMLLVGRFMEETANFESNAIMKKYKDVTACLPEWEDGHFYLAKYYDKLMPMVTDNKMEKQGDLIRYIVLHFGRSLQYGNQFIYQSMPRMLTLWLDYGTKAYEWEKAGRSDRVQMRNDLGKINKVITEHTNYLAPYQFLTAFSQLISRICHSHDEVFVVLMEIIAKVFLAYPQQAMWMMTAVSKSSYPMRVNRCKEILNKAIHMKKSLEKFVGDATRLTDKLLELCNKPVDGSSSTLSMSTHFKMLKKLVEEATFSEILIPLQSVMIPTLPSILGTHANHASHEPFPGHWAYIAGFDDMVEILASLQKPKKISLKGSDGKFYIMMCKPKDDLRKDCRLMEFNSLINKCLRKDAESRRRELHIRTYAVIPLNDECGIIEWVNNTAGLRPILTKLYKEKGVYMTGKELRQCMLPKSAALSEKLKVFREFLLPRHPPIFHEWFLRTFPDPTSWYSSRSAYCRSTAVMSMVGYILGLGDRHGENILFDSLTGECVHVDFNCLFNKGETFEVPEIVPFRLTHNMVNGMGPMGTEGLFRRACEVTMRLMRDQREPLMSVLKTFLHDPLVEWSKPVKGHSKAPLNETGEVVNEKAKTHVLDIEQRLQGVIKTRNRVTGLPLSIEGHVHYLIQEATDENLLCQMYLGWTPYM

In publication PMC12009711:

Columns and labels:
[1] = biological target: cyclin-dependent kinase 9 (CDK9) (Homo sapiens, UniProt P50750); assay: in vitro kinase assay, dose-response
[2] = biological target: ataxia telangiectasia and Rad3-related (ATR) (Homo sapiens, UniProt Q13535); assay: in vitro kinase assay, dose-response

Row | IC50 [1] [nM] | Structure (SMILES) | IC50 [2] [nM]
1 | 117 | Fc1ccccc1-c1ccnc2[nH]c(-c3ccc(Oc4ccccc4)cc3)cc12 | 
2 |  | CC(O)c1cccc(-c2cc(N3CCOCC3)cc(-c3ccnc4[nH]ccc34)n2)c1 (racemic) | 235
